Experimental data: US8530663B2, “1-(2-phenoxymethylheteroaryl)piperidine and piperazine compounds” (Theravance, Inc., priority 2010, dated 2013)
Marks after values point to notes of the source that are not given here.

Protein sequences, listed by entry. Tags and fused reporters are not part of them.
UniProt P31645, whole entry: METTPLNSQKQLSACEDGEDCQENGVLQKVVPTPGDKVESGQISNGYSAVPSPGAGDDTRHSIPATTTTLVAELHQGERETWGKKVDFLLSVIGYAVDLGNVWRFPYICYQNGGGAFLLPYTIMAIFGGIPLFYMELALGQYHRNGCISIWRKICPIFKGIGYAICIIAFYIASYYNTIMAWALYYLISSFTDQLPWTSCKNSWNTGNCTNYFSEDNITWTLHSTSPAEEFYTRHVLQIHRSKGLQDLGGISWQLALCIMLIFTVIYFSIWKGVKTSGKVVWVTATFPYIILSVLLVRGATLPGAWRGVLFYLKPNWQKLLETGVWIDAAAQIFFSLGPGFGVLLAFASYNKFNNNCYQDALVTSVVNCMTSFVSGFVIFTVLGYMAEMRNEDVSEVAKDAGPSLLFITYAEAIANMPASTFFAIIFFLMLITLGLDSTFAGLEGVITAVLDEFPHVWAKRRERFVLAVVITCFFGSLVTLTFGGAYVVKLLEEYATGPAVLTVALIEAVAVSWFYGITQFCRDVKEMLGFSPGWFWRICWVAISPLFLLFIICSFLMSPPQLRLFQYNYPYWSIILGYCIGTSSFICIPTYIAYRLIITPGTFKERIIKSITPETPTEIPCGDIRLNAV
UniProt P23975, whole entry: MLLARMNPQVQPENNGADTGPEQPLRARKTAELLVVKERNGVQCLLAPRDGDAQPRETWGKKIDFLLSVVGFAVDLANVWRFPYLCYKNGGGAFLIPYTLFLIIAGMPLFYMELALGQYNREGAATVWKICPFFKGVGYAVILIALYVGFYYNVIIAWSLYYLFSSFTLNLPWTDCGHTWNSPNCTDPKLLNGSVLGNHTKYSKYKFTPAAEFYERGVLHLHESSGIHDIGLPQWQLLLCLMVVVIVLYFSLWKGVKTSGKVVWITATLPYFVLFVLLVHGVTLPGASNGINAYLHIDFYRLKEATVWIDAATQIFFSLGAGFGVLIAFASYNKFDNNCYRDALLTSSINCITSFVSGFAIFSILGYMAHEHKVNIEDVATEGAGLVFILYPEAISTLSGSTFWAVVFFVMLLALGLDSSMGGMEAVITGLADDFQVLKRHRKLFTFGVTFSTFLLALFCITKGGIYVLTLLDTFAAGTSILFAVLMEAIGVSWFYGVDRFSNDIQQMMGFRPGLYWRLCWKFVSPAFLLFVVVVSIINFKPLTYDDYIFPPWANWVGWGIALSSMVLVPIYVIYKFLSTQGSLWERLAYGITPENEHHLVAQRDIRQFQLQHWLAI

Columns and labels:
hSERT [1] = molecular target: T1, hSERT (Homo sapiens, UniProt P31645); test: hSERT membrane radioligand binding assay (3H-citalopram); conditions: hSERT membranes, 1.0 nM 3H-citalopram
hNET [2] = molecular target: T2, hNET (Homo sapiens, UniProt P23975); test: hNET membrane radioligand binding assay (3H-nisoxetine); conditions: hNET membranes, 1.0 nM 3H-nisoxetine
hSERT [3] = molecular target: T1, hSERT; test: fluorescence-based serotonin reuptake assay (Tsuruda et al. 2010; data with asterisk); conditions: serotonin reuptake inhibition, fluorescence-based assay (data indicated by an asterisk)
hNET [4] = molecular target: T2, hNET; test: fluorescence-based norepinephrine reuptake assay (Tsuruda et al. 2010; data with asterisk); conditions: norepinephrine reuptake inhibition, fluorescence-based assay (data indicated by an asterisk)

SMILES | SERT pKi (hSERT [1]) | NET pKi (hNET [2]) | SERT pIC50 (hSERT [3]) | NET pIC50 (hNET [4])
Fc1ccc(F)c(OCc2cccnc2C2CCNCC2)c1Cl | ≧7.0 | ≧7.0 |  | 
Fc1cc(F)c(OCc2ccoc2C2CCNCC2)c(F)c1 |  |  | ≧7.0* | ≧7.0*
Fc1ccc(F)c(OCc2ccsc2C2CCNCC2)c1Cl | ≧7.0 | ≧6.0 |  | 
Clc1cccc(Cl)c1OCc1ccoc1C1CCNCC1 |  |  | ≧6.0* | ≧6.0*
Fc1ccc(F)c(OCc2sccc2C2CCNCC2)c1Cl | ≧7.0 | ≧5.0 |  | 
